Here are results for one substance from publication PMC5021948, “Amyloidogenic amyloid-β-peptide variants induce microbial agglutination and exert antimicrobial activity” (Scientific Reports, 2016).

One assay concerns C. albicans. Description: Gram staining, microbial agglutination. It is filed as cell-based, Candida albicans. The note with it: 50 μg/ml, 20 h. The method, then:
(§1) Enterococcus faecalis (ATCC 29212), Listeria monocytogenes (VA 15110/93), Escherichia coli (DH5α) and Staphylococcus aureus (ATCC 25923) were grown aerobically on blood agar plates. Candida albicans (ATCC 10231) was plated on Sabouraud dextrose agar plates. E. coli, S. aureus and C. albicans were cultured at 37 °C; E. faecalis and L. monocytogenes were cultured at 37 °C with an additional 5% CO2. Before the experiments, the organisms were subcultured to generate mid-logarithmic growth cultures for use as inoculates. Colonies from the agar were transferred using a sterile loop to Mueller-Hinton broth (Roth, Karlsruhe, Germany) and incubated for 100 min at 39 °C to achieve a McFarland density of 0.5. The C. albicans and bacterial inocula were normalized in Mueller-Hinton broth to 5 × 10^5 cells/ml immediately before use. For the experiments, an inoculum of 5 × 10^5 cells/ml was dispensed into 96-well plates containing Mueller-Hinton broth growth medium with Aβ peptides, as indicated below.
(§2) The same cultures analysed by flow cytometry were used for the gram staining. After incubating the bacteria and C. albicans with the peptides, 10 μl of the cell suspensions were air-dried on microscope slides and flame-fixated. The smears were flooded with crystal violet solution for 2 min. The slides were rinsed and then incubated for 2 min with iodine solution. […]

A further assay concerns L. monocytogenes. Kind of assay: Gram staining, microbial agglutination. It is filed as cell-based, Listeria monocytogenes. To be noted: 50 μg/ml, 6 h. The method, then: as §1, §2
Assay [1] deals with E. faecalis, E. coli, S. aureus, L. monocytogenes and C. albicans. Description: Flow cytometry of damaged microorganisms (increased autofluorescence / reduced forward scatter). It is filed as cell-based. To be noted: 25 or 50 μg/ml, 6 h bacteria, 20 h C. albicans. Here is the method:
as §1, with “For the experiments, an inoculum of 5 × 10^5 cells/ml was dispensed into 96-well plates containing Mueller-Hinton broth growth medium with Aβ peptides, as indicated below.” left out
After 6 h of incubation for bacteria and 20 h for C. albicans, 50 μl of the cell suspension was diluted in 1% paraformaldehyde (Sigma-Aldrich, Munich, Germany) and stained with DAPI (Sigma-Aldrich, Munich, Germany). Flow cytometry analysis was performed using a Gallios Cytometer (Beckman Coulter, Krefeld, Germany), and the results were evaluated using Kaluza® software (Beckman & Coulter, Krefeld, Germany). […] Viability was assessed based on the increase in autofluorescence and reduction of forward scatter as signs of microbial damage.

Assay [2] deals with surfaces of E. faecalis and S. aureus. Kind of assay: Immunocytochemistry (6E10), Aβ peptide bound to microbial surface. It is filed as binding. To be noted: 50 μg/ml, 6 h, 6E10 antibody, mean pixel intensity in donut-shaped masks. The method, then: The immunocytochemistry of E. faecalis and S. aureus was examined using the Gram preparations specified above. To achieve the robust adherence of pathogens on the glass slides during the staining procedure, cells were incubated with 2% paraformaldehyde (Sigma-Aldrich, Munich, Germany) on the slides and air dried for 60 min at room temperature, followed by washing with PBS (Biochrom, Berlin, Germany). […]
All images were visually quality controlled. […] An automated quantitative phenotypic image analysis was performed using a custom-adapted version of the image analysis software DetecTiff. Pericellular Aβ peptide levels were quantified from the AF488 channel within donut-shaped masks (see Fig. 1B), which were generated from the DAPI channel in a three-step procedure. […] The Aβ peptide level in an individual cell was calculated as the arithmetic mean of all pixel values within the area of a donut-shaped mask and reported as the mean pixel intensity. Cell aggregation was quantified in an automated manner from segmented images of DAPI-stained nuclei by counting the number of bacteria adjacent to a selected individual bacterium within a rectangular 50-pixel[2] region.

Consider “Aβ2-42: amyloidogenic, N-terminally truncated amyloid-β peptide variant ending at position 42 (Anaspec)”, for which the “microbial agglutination in Gram stains” value in the assay with C. albicans and with L. monocytogenes was “no agglutinated bacteria were observed” each time. In assay [1], the “antimicrobial / microbicidal activity by flow cytometry” value is “very strong microbicidal effect”. For the same substance, the “binding of Aβ peptide to microbial surfaces” value in assay [2] is reported as “bound to microbial surfaces”.
